In US20090186949A1, “Method for Treating Endothelial and Epithelial Cell Disorders by Administering High Molecular Weight PEG-Like Compounds” (THE UNIVERSITY OF CHICAGO, priority 2006, published 2009) one finds solubility data, which are given here for 1 substance.

The nature of the data set: Solubility and viscosity observations.

For “High Molecular Weight PolyEthylene Glycol [HMW PEG]”, the solubility result is “relatively insoluble”.
